This is an account of results in PubChem BioAssay AID504634 (The Scripps Research Institute Molecular Screening Center, 2011).

Protein sequences, listed by entry. Tags and fused reporters are not part of them.
UniProt P47898, whole entry: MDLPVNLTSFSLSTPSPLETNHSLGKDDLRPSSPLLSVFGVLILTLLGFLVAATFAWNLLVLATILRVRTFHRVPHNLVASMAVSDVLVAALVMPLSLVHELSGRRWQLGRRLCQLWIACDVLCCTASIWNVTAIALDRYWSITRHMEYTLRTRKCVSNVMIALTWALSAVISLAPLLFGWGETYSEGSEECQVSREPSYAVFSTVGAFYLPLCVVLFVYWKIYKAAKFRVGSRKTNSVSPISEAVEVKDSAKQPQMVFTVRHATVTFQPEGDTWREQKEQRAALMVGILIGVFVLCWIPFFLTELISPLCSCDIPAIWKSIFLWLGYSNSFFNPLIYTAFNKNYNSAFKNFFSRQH

Only a part is listed here, and it is no random draw. Some salts or complexes appear as unconnected parts, following the source record. Activity calls are given as the source filed them. Cut-off read from the data, not from the text of the source: active = inhibition mostly above about 23% (no sharp cut-off); inactive = mostly below about 18%.

The target of this assay is 5-hydroxytryptamine receptor 5A (Homo sapiens) (UniProt P47898). The experiment in a line: HTR5A inverse agonists in luminescence cell assay, primary screen, counter-screen for OPRM1-OPRD1 heterodimer inverse agonist project, full-deck HTS (AID 504634).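 Note: 0% = cells with DMSO and 100% = no-cell wells with DMSO.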 The settings on record: HTR5A cell line, inverse agonism, at 9.3 µM, stronger effect = higher value.
For orientation: inhibition means the drop in the measured response relative to a control, in per cent. `Cc1ccccc1NP(C)(=O)Nc1ccccc1C`: the inhibition was inactive: 5.7%.

Take `CP(=O)(Nc1ccc2c(c1)OCCO2)Oc1ccccc1` (stereo not given): the inhibition was inactive: -8.13%.

On to `CCOP(C)(=S)SCC(=O)NC(C)(CC)C(=O)O` (stereo not given), for which the inhibition is inactive: -2.24%.

With `CP(=O)(Nc1ccc(SC(F)(F)F)cc1)Oc1ccc(F)cc1` (stereo not given), the inhibition was inactive: 23.4%.

As for `Cc1c(C(c2ccc3c(c2)OCO3)c2c(C)n(C)n(-c3ccccc3)c2=O)c(=O)n(-c2ccccc2)n1C.O=[N+]([O-])c1cc([N+](=O)[O-])c(O)c([N+](=O)[O-])c1`, the inhibition was inactive: 8.09%.

As for `O=[N+]([O-])c1cc([N+](=O)[O-])c(NCC2CCS(=O)(=O)C2)c([N+](=O)[O-])c1` (stereo not given), the inhibition was inactive: 0.87%.

As to `Cc1cc(-c2cccc3ccccc23)c(C)cn1.O=[N+]([O-])c1cc([N+](=O)[O-])c(O)c([N+](=O)[O-])c1`, the inhibition is inactive: -6.47%.

On to `O=[N+]([O-])c1ccc(OP2(=O)COCCO2)cc1` (stereo not given), for which the inhibition is inactive: 8.52%.

Take `COc1ccc(NP(C)(=O)Oc2ccccc2OC)cc1` (stereo not given): the inhibition is inactive: -1.3%.

`CN(C)CCOC(=O)C(O)(c1ccccc1)C1CCCCC1` (stereo not given): the inhibition is inactive: 5.93%.

Take `CN(C)C1(CNC(=O)c2ccc(Cl)c(S(N)(=O)=O)c2)CCCCC1`: the inhibition was inactive: -19.2%.

On to `COc1ccc(OP(C)(=O)Nc2cccc(Br)c2)cc1` (stereo not given), for which the inhibition was inactive: -3.71%.

Take `O=[N+]([O-])c1cc([N+](=O)[O-])c(OC2CCCCC2O)c([N+](=O)[O-])c1` (stereo not given): the inhibition was inactive: 18.8%.

As for `CCCCCOc1ccc(NP(C)(=O)Oc2ccc(Cl)cc2Cl)cc1` (stereo not given), the inhibition is inactive: -6.85%.

Consider `CP(=O)(Nc1ccccc1)Oc1ccc(F)cc1` (stereo not given), for which the inhibition was inactive: 3.96%.

Consider `CCN(CC)CCCOC(=O)C(O)(c1ccccc1)C1CCCCC1` (stereo not given), for which the inhibition was inactive: 5.27%.

`Cc1c([N+](=O)[O-])cc([N+](=O)[O-])c(Br)c1[N+](=O)[O-]`: the inhibition was inactive: -14%.

Turning to `COc1ccc(OP(C)(=O)Nc2ccc(SC(F)(F)F)cc2)cc1` (stereo not given), the inhibition is inactive: 6.22%.

With `CCOC(=O)c1ccc(NP(C)(=O)Oc2ccc(F)cc2)cc1` (stereo not given), the inhibition is inactive: -42.7%.

As for `COc1ccc2c(c1O)-c1c(O)c(OC)cc3c1[C@H](C2)[N+](C)(C)CC3.O=[N+]([O-])c1cc([N+](=O)[O-])c([O-])c([N+](=O)[O-])c1[O-]`, the inhibition was inactive: -7.42%.

For the compound `O=C(OCCN1CCN(CCOCc2ccccc2)CC1)C(O)(c1ccccc1)c1ccccc1`, the inhibition was inactive: 12.7%.

Take `O=C(OC1CN2CCC1CC2)c1ccc([N+](=O)[O-])cc1` (stereo not given): the inhibition is inactive: -34.3%.

Regarding `CC(C)c1ccc(OP(C)(=O)Nc2ccc(SC(F)(F)F)cc2)cc1` (stereo not given), the inhibition is inactive: -11.5%.

Regarding `CP(=O)(Nc1ccccc1F)Oc1ccccc1` (stereo not given), the inhibition is inactive: 18.3%.

Turning to `CCc1ccc(OP(C)(=O)O)cc1`, the inhibition was inactive: 6.81%.

For the compound `CP(=O)(Nc1ccccn1)Oc1ccccc1` (stereo not given), the inhibition was inactive: -11.5%.

For the compound `COc1ccccc1OP(C)(=O)Nc1ccc(C)cc1C` (stereo not given), the inhibition is inactive: -16.2%.

For the compound `Cc1c(NP(C)(=O)Oc2ccc(C(C)C)cc2)c(=O)n(-c2ccccc2)n1C` (stereo not given), the inhibition is inactive: 1.04%.

Consider `O=[N+]([O-])c1cc([N+](=O)[O-])c(Nc2ccccn2)c([N+](=O)[O-])c1`, for which the inhibition is inactive: 29.6%.

For `CN(C)CCOC(=O)C(O)(c1ccccc1)C1CCCC1` (stereo not given), the inhibition was inactive: 9.98%.

With `COc1ccc(OP(C)(=O)Nc2ccccn2)cc1` (stereo not given), the inhibition was inactive: -29.4%.

As for `COc1ccccc1OP(C)(=O)Nc1ccc(Br)cc1` (stereo not given), the inhibition was inactive: -17.6%.

As for `CP(=O)(Nc1ccc(Cl)cc1Cl)Oc1ccccc1` (stereo not given), the inhibition is inactive: 5.76%.

For `CCCCCCCCCCCCCCCC1C[N+](C)(C)CCOP(C)(=O)O1` (stereo not given), the inhibition was inactive: 15.4%.

`CP(=O)(OCCOc1ccccc1)OCCOc1ccccc1`: the inhibition was inactive: -2.14%.

With `COc1ccc(OP(C)(=O)Nc2ccccc2Br)cc1` (stereo not given), the inhibition is inactive: 10.4%.

Regarding `COc1ccccc1OP(C)(=O)Nc1ccc(C)c(C)c1` (stereo not given), the inhibition is inactive: -7.26%.

Regarding `O=C1C(O)=C([N+](=O)[O-])C(=O)C(O)=C1[N+](=O)[O-]`, the inhibition was inactive: -9.73%.

Regarding `Cc1cc(C)cc(OP(C)(=O)Nc2cccc(C(F)(F)F)c2)c1` (stereo not given), the inhibition is inactive: -6.44%.

As for `CP(=O)(OC12CC3CC(CC(C3)C1)C2)OC12CC3CC(CC(C3)C1)C2`, the inhibition was inactive: 2.74%.

For the compound `CCOC(=O)c1ccc(NP(C)(=O)Oc2ccc(Cl)cc2)cc1` (stereo not given), the inhibition was inactive: 11.3%.

Turning to `CCCCN1CCC(C#N)(Nc2ccccc2)CC1`, the inhibition is inactive: 8.8%.

Take `CN(C)C(=O)c1c([N+](=O)[O-])cc([N+](=O)[O-])cc1[N+](=O)[O-]`: the inhibition was inactive: -2.4%.

As to `CP(=O)(Nc1ccc(Cl)cc1)Oc1ccc(F)cc1` (stereo not given), the inhibition is inactive: -12.8%.

Regarding `COc1ccccc1OP(C)(=O)Nc1ccccc1Br` (stereo not given), the inhibition was inactive: 7.03%.

On to `CC(C)(C)c1ccc(OP(C)(=O)O)cc1`, for which the inhibition was inactive: 24.9%.

Take `CP(=O)(Oc1ccccc1)N1CCOC1=O` (stereo not given): the inhibition was inactive: 6.66%.

For `CCc1ccc(OP(C)(=O)Nc2cccnc2)cc1` (stereo not given), the inhibition is inactive: -8.4%.

For `COc1ccccc1OP(C)(=O)Nc1c(C)n(C)n(-c2ccccc2)c1=O` (stereo not given), the inhibition is inactive: 0.96%.

As for `O=C(OCCCN1CCCC1)C(O)(c1ccccc1)C1CCCCC1` (stereo not given), the inhibition is inactive: 4.97%.

On to `CCN(CC)CC(O)COC(=O)C(O)(c1ccccc1)C1CCCCC1` (stereo not given), for which the inhibition is inactive: 5.33%.

In the case of `COc1ccc(OP(C)(=O)Nc2ccc(Br)cc2)cc1` (stereo not given), the inhibition is inactive: -6.23%.

Consider `CP(=O)(Nc1ccccn1)Oc1ccc(Cl)cc1` (stereo not given), for which the inhibition is inactive: 2.12%.

Regarding `CCOP(C)(=S)SCC(=O)NC(C)C(=O)O` (stereo not given), the inhibition is inactive: -17.9%.

Turning to `CCOC(=O)c1ccc(NP(C)(=O)Oc2ccc(OC)cc2)cc1` (stereo not given), the inhibition is inactive: 17.3%.

On to `CP(=O)(NC(=O)Nc1ccccc1)Oc1ccccc1` (stereo not given), for which the inhibition was inactive: 22%.

Consider `CCc1ccc(OP(C)(=O)N2CCN(c3ccc([N+](=O)[O-])cc3)CC2)cc1` (stereo not given), for which the inhibition was inactive: -6.13%.

For the compound `Cc1cc(C)cc(OP(C)(=O)Nc2ccc(SC(F)(F)F)cc2)c1` (stereo not given), the inhibition was inactive: -23.2%.

For the compound `O=C(C1CCN(S(=O)(=O)c2cccc3nsnc23)CC1)N1CCn2c1nc1ccccc12`, the inhibition is active: 84.3%.

For the compound `Cc1cccc(C)c1OP(C)(=O)Nc1ccc(SC(F)(F)F)cc1` (stereo not given), the inhibition was inactive: 0.57%.
